The structures appear in SMILES notation. Only a part is listed here, and it is no random draw. Inconclusive results are not listed. Active and inactive are the calls of the source. Calls follow the shape of the dose curve; as a rule, active = well fitted inhibition curve with a large enough effect; inconclusive = small, poorly fitted or top-dose-only effect; inactive = no such curve, though single readings can be large or run the other way.

Here are results for 14 molecules from PubChem BioAssay AID893 (National Center for Advancing Translational Sciences (NCATS), 2007).
% is scaled to controls: 0 for no effect and ±100 for the full control effect.

The target in the experiment is 3-hydroxyacyl-CoA dehydrogenase type-2 (Homo sapiens) (UniProt Q99714). The experiment is described as follows: qHTS Assay for Inhibitors of HSD17B4, hydroxysteroid (17-beta) dehydrogenase 4.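 Also: the protocol describes HADH2 (HSD17B10) and not the HSD17B4 of the title; nearly all actives have a fitted effect of over 70% in size.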 Conditions: recombinant HSD17B10, NADH fluorescence kinetic; at 57.1 µM (top of the series) unless noted. In general terms: In qHTS, concentration-response curves come from the screen itself.
Take `N#CC1(Nc2ccccc2)CCN(CCc2ccccc2)CC1`: the activity change, negative = inhibition is inactive: 7.31%.

For the molecule `NCC(O)CN.Oc1c(Cl)c(Cl)c(Cl)c(Cl)c1Cl`, the activity change, negative = inhibition was inactive: 1.34% [at 11.4 µM].

On to `CCOP(=O)(Cl)Cl`, for which the activity change, negative = inhibition is inactive: -4.29%.

As to `C=C(C)CNCC(=C)C.Oc1c(Cl)c(Cl)c(Cl)c(Cl)c1Cl`, the activity change, negative = inhibition was inactive: -2.27% [at 11.4 µM].

`NC1CCCCC1.NP(=O)(O)N(CCCl)CCCl`: the activity change, negative = inhibition is inactive: 5% [at 11.4 µM].

For the molecule `O=C(OC1CN2CCC1CC2)C1c2ccccc2Oc2ccccc21` (centres undefined), the activity change, negative = inhibition was inactive: 10.1%.

Regarding `COc1ccc(NC2CCN(CCc3ccccc3)CC2)c(OC)c1`, the activity change, negative = inhibition was inactive: -0.675%.

`Fc1ccccc1NC1CCN(Cc2ccccc2)CC1`: the activity change, negative = inhibition is inactive: -1.7%.

As for `O=C(O)C1(Nc2ccccc2)CCN(Cc2ccccc2)CC1`, the activity change, negative = inhibition is inactive: 12.8% [at 11.4 µM].

For the molecule `CCOc1ncccc1C(=O)NCC1(N2CCOCC2)CCCCC1`, the activity change, negative = inhibition is inactive: -5.54%.

Consider `CCC(CO)(C(=O)OC1CN2CCC1CC2)c1ccccc1` (centres undefined), for which the activity change, negative = inhibition is inactive: 4.91%.

Consider `N/C(=N\O)c1c(N)no[n+]1[O-]`, for which the activity change, negative = inhibition was inactive: 11.3%.

As to `C[C@@H](O)CC(C)(C)N.Oc1c(Cl)c(Cl)c(Cl)c(Cl)c1Cl`, the activity change, negative = inhibition is inactive: 1.23% [at 11.4 µM].

Consider `ClCCOP(OCCCl)OCCCl`, for which the activity change, negative = inhibition is inactive: -4.22%.
